ChEMBL document CHEMBL1127447, “Isothiocyanate-substituted kappa-selective opioid receptor ligands derived from N-methyl-N-[(1S)-1-phenyl-2-(1-pyrrolidinyl)ethyl] phenylacetamide” (1994)

Sequences of proteins named here, by UniProt entry; tags and fusion partners are left off. A change or cut given only in a name is not applied to a line headed by its entry.
UniProt P41144: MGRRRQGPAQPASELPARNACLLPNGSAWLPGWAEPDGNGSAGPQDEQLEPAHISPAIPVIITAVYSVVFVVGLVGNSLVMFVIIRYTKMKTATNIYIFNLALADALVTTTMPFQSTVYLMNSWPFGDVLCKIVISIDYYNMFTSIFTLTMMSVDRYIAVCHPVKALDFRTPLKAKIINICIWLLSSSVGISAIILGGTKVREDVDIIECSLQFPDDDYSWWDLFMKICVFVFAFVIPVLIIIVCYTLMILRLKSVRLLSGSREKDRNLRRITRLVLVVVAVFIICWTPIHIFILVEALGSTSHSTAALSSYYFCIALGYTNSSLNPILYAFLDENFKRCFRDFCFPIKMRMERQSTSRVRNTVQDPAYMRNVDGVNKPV
UniProt P97266, whole entry, looked up: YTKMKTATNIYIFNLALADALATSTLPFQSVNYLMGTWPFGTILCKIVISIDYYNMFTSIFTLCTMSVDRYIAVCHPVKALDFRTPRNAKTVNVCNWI

Columns and labels:
[1] = biological target: T1, Kappa-type opioid receptor (Cavia porcellus, UniProt P41144); assay: Tested for inhibitory concentration against [3H]U-69593 binding at sites of kappa-opioid receptor in guinea pig brain membrane
Mu-type opioid receptor = Mu-type opioid receptor (Cavia porcellus, UniProt P97266); assay: Tested for inhibitory concentration against [3H]DAMGO binding at sites of mu-opioid receptor in guinea pig brain membrane
[2] = Tested for inhibitory concentration against [3H]bremazocine binding to total sites of opioid receptor in guinea pig brain membrane
[3] = biological target: T1, Kappa-type opioid receptor; assay: Tested for inhibitory concentration against [3H]U-69593 binding at kappa-opioid receptor sites in guinea pig brain membrane
[4] = biological target: T1, Kappa-type opioid receptor; assay: Tested for inhibitory concentration against [3H]U-69593 binding at sites kappa-opioid receptor in guinea pig brain membrane

CN(C(=O)Cc1cccc(N=C=S)c1)[C@H](CN1CCCC1)c1ccccc1
IC50 [1]: 3.3 nM
IC50 (Mu-type opioid receptor): 5100 nM
IC50 [2]: 54 nM

CN(C(=O)Cc1ccccc1N=C=S)[C@H](CN1CCCC1)c1ccccc1 [listing 1 of 2 here]
IC50 (Mu-type opioid receptor): > 1000 nM
IC50 [3]: 2.3 nM

CN(C(=O)Cc1ccccc1)[C@H]1CC[C@@]2(CCCO2)C[C@@H]1N1CCCC1
IC50 [1]: 2.1 nM
IC50 (Mu-type opioid receptor): 1760 nM
IC50 [2]: 140 nM

CC(C)C[C@H](NC(=O)[C@H](Cc1ccccc1)NC(=O)CNC(=O)[C@@H](CO)NC(=O)[C@@H](N)Cc1ccc(O)cc1)C(=O)N[C@H](C(=O)O)[C@@H](C)O
IC50 [1]: 600 nM
IC50 (Mu-type opioid receptor): 73 nM
IC50 [2]: 1040 nM

CN(C(=O)Cc1ccc(Cl)c(Cl)c1)[C@H](CN1CCCC1)c1ccccc1
IC50 [1]: 1.5 nM
IC50 (Mu-type opioid receptor): 150 nM
IC50 [2]: 11 nM

CN(C(=O)Cc1ccccc1)[C@H](CN1CCCC1)c1ccccc1
IC50 [1]: 1.4 nM
IC50 (Mu-type opioid receptor): > 1000 nM
IC50 [2]: 63 nM

CN(C(=O)Cc1ccc(Cl)c(Cl)c1)[C@H](CN1CCCC1)c1ccc(N=C=S)cc1
IC50 [1]: 1.8 nM
IC50 (Mu-type opioid receptor): > 1000 nM
IC50 [2]: 430 nM

CN(C(=O)Cc1cc(Cl)c(Cl)cc1N=C=S)[C@H](CN1CCCC1)c1ccccc1 [listing 1 of 2 here]
IC50 [1]: 9.5 nM
IC50 (Mu-type opioid receptor): 1250 nM

CN(C(=O)Cc1cc(Cl)c(Cl)cc1N=C=S)[C@H](CN1CCCC1)c1ccccc1 [listing 2 of 2 here]
IC50 [2]: 54 nM

CN(C(=O)Cc1ccccc1N=C=S)[C@H](CN1CCCC1)c1ccccc1 [listing 2 of 2 here]
IC50 [2]: 58 nM

CN(C(=O)Cc1ccc(N=C=S)cc1)[C@H](CN1CCCC1)c1ccccc1 [listing 1 of 2 here]
IC50 [2]: 53 nM

CN(C(=O)Cc1ccc(N=C=S)cc1)[C@H](CN1CCCC1)c1ccccc1 [listing 2 of 2 here]
IC50 [4]: 14 nM
IC50 (Mu-type opioid receptor): 730 nM
